High-throughput results (PubChem BioAssay)
uPA surface inh – inhibitors of cell surface uPA generation | cell surface uPA generation assay, qHTS | Potency, µM (series often up to 38.3 µM), without a hit: at the highest dose activity change, negative = inhibition, most hits filed as inhibitors | 330,000 compounds, 0.31% hits; active = well fitted inhibition curve with a large enough effect; inconclusive = small, poorly fitted or top-dose-only effect; inactive = no such curve, though single readings can be large or run the other way; tested in mouse RAW 264.7 cells; also: potency is read from the fitted curve at half-maximal effect; % is scaled to controls: 0 for no effect and ±100 for the full control effect; nearly all actives have a fitted effect of over 55% in size
DT40 TDP1 CPT – growth inhibition of DT40 Tdp1-/-;hTDP1 cells with camptothecin (screen for TDP1 inhibitors). AID 686979. Potency, µM (doses to about 46.2 µM), for the others: at the highest dose activity change, negative = growth inhibition, actives largely listed as inhibitors. 420,000 compounds, 12% hits. chicken DT40 Tdp1-/-;hTDP1 cells + 20 nM CPT, ATP luminescence, 48 h; also: potency is read from the fitted curve at half-maximal effect; % is scaled to controls: 0 for no effect and ±100 for the full control effect; nearly all actives have a fitted effect of over 55% in size
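Cell growth measured by CellTiter-Glo luminescence after a minimum 48 h, 37 C compound exposure with 20 nM CPT in Tdp1-knockout DT40 cells stably expressing hTDP1, seeded 400/well; qHTS titration format.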
TDP1 cell noCPT – qHTS for Inhibitors of human tyrosyl-DNA phosphodiesterase 1 (TDP1): qHTS in cells in absence of CPT. DT40 Tdp1-/- hTDP1 cells, no CPT, ATP luminescence, 48 h. Potency, µM (series often up to 46.2 µM), for inactives: top-dose activity change, negative = growth inhibition, actives largely listed as inhibitors. 420,000 compounds, 15% hits; also: potency is read from the fitted curve at half-maximal effect; % is scaled to controls: 0 for no effect and ±100 for the full control effect; nearly all actives have a fitted effect of over 55% in size
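Stably hTDP1-transfected Tdp1-null chicken DT40 cells were treated with library compounds minus camptothecin and grown for at least 48 hr at 37 °C, after which cellular ATP was quantified by luminescence.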
miR-21 reporter – raises the signal of a miR-21 reporter; AID 2288; 340,000 tested, under 10 active; Potency, µM (doses to about 38.3 µM), inactives show at the top dose reporter change, positive = more light; HeLa miR-21 FLuc reporter, luciferase, 48 h; active = well fitted rising curve with a large enough effect; inconclusive = small, poorly fitted or top-dose-only effect; inactive = no such curve, though single readings can be large or run the other way;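 note: % of control where 0% means no effect; miR-21 action dims this reporter so a rising signal means less miR-21 action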
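HeLa miR-21-FLuc reporter line, endogenous miR-21; 2000 cells/well in DMEM/10% FBS; compound titration up to ~40uM final, 48 h, 37 degree Celsius; luciferase detection reagent, 15 min lysis, CCD luminescence.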
TDP1 block – inhibitors of human tyrosyl-DNA phosphodiesterase TDP1; Q9NUW8; recombinant TDP1, AlphaScreen DNA substrate cleavage; Potency, µM (top dose mostly 130 µM), inactives show top-dose activity change, negative = inhibition, hits mostly inhibitors; 350,000 compounds, 0.28% hits; also: potency is read from the fitted curve at half-maximal effect; % is scaled to controls: 0 for no effect and ±100 for the full control effect; nearly all actives have a fitted effect of over 40% in size
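Here, a 5' biotin and 3' phosphotyrosine-FITC DNA oligonucleotide reports Tdp1 activity: intact substrate bridges AlphaScreen beads, while cleavage leaves a 3' phosphate and drops signal. All incubations at room temperature.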
Active calls of the source: *; ? = inconclusive; · = no result given; ! = a repeat was not active. This is a sample that favours compounds with a hit; in the whole collection about 16% have one here. Unless noted, calls follow the shape of the dose curve; as a rule, active = well fitted curve in the direction sought with a large enough effect; inconclusive = small, poorly fitted or top-dose-only effect, or another doubt; inactive = no such curve, though single readings can be large; an effect the other way counts as inactive or inconclusive.

(1) CCOC(=O)c1c(C)oc2nc(C)nc(NCc3ccc(Cl)cc3)c12
(2) CCOC(=O)c1c(C)oc2nc(C)nc(NCCc3ccc(OC)c(OC)c3)c12
(3) CC(C)(C)NC(=O)C1CCC(CNS(=O)(=O)c2cccc3nsnc23)CC1 (stereo unspecified)
(4) COc1ccc(CCN2C(=S)N(c3ccc(Cl)cc3)C(=O)C2CC(N)=O)cc1OC (stereo unspecified)
(5) Cc1ccc2nc(-c3ccc(C)c(NC(=O)COc4ccc(Br)cc4)c3)oc2c1
(6) CC(=O)c1cccc(NC(=O)COc2ccccc2)c1
entry no.,1,2,3,4,5,6
uPA surface inh,·,·,-3%,-9%,·,-7%
DT40 TDP1 CPT,?,21µM*,-26%,15µM*,?,?
TDP1 cell noCPT,?,18µM*,-12%,16µM*,-12%,8%
miR-21 reporter,-5%,-17%,3%,10%,·,-29%
TDP1 block,4%,-5%,0%,-8%,·,-1%

(7) CSc1cccc(NC(=O)COc2ccccc2)c1
(8) O=C(COc1ccccc1)Nc1cccc(-c2nc3cc4ccccc4cc3[nH]2)c1
(9) Cc1cccc(OCC(=O)Nc2cccc(-c3nnc(-c4ccccc4)o3)c2)c1C
(10) Cc1cccc(C)c1OCC(=O)Nc1cccc(-c2nnc(-c3ccccc3)o2)c1
(11) Cc1ccc(OCC(=O)Nc2ccc(-c3nc4ccc(C)cc4o3)cc2)cc1
(12) Clc1ccc(C(CCN2CCCC2)Cc2ccccc2)cc1 (stereo unspecified)
entry no.,7,8,9,10,11,12
uPA surface inh,-3%,·,-7%,-2%,·,-4%
DT40 TDP1 CPT,8.2µM*,15µM*,-21%,18µM*,16µM*,-13%
TDP1 cell noCPT,4.6µM*,21µM*,?,16µM*,18µM*,?
miR-21 reporter,-33%,26%,-5%,-13%,-37%,-1%
TDP1 block,4%,-2%,-2%,3%,3%,·

(13) CC1CCN(C(=O)c2nc[nH]c2C(=O)N2CCC(C)CC2)CC1
(14) CCOC(=O)Cc1csc(NC(=O)CSc2nc3cccnc3n2CC)n1
(15) Cc1ccc(OCC(=O)Nc2cccc(-c3nnc(-c4ccccc4)o3)c2)cc1
(16) CSc1cccc(NC(=O)CCCOc2ccc(Cl)cc2C)c1
(17) CSc1cccc(NC(=O)OC2CCCCCCCCCCC2)c1
(18) C/C(=N\Nc1cccc2cccnc12)c1ccc[nH]1
entry no.,13,14,15,16,17,18
uPA surface inh,0%,1%,1%,1%,?,-9%
DT40 TDP1 CPT,2%,?,16µM*,18µM*,?,2.6µM*
TDP1 cell noCPT,17%,?,16µM*,?,21µM*,4.6µM*
miR-21 reporter,·,-8%,-23%,-8%,-5%,-48%
TDP1 block,1%,3%,5%,-6%,-1%,12%

(19) COc1cc(Cl)ccc1NC(=O)COc1ccccc1C(=O)N1CCN(c2ccc(O)cc2)CC1
(20) COc1ccc(C(=O)N2CCN(c3cccc(Cl)c3)CC2)c(OC)c1
(21) CCOc1ccc2ccccc2c1C(=O)N1CCN(c2ccccc2)CC1
(22) CCOc1cc(CN2CCN(C(=O)c3cccc4ccccc34)CC2)ccc1OC
(23) CCOc1ccccc1C(=O)N1CCN(c2cccc(Cl)c2)CC1
(24) COc1ccc(N2CCN(C(=O)c3ccc(SC)cc3OC)CC2)cc1
entry no.,19,20,21,22,23,24
uPA surface inh,-10%,-11%,·,-9%,·,-1%
DT40 TDP1 CPT,23µM*,16µM*,?,?,0.037µM*,-28%
TDP1 cell noCPT,23µM*,12µM*,16µM*,-29%,0.16µM*,?
miR-21 reporter,13%,22%,20%,6%,29%,0%
TDP1 block,4%,7%,1%,5%,1%,-8%

(25) COc1ccc(CCNC(=O)c2ccc3c(c2)nc2n3CCOC2)cc1OC
(26) COc1ccccc1NC(=O)Nc1ccc2[nH]c(=O)[nH]c2c1
(27) O=C(C[C@H]1C/C=C\CCCCC(=O)OC[C@H]2CCCN2C1=O)N[C@H](CO)Cc1ccccc1
(28) CC1=C(C(N)=O)C(c2cccc(C)c2)n2nc(-c3ccc(Cl)cc3)nc2N1 (stereo unspecified)
(29) COc1ccc(-c2nc3n(n2)C(c2cccnc2)C(C(N)=O)=C(C)N3)cc1 (stereo unspecified)
(30) COc1ccccc1NC(=O)C1=C(C)Nc2nc(-c3ccco3)nn2C1c1ccccc1F (stereo unspecified)
entry no.,25,26,27,28,29,30
uPA surface inh,·,7%,7%,·,1%,·
DT40 TDP1 CPT,3%,?,?,21µM*,3%,16µM*
TDP1 cell noCPT,4%,-1%,?,?,-18%,?
miR-21 reporter,-14%,-2%,·,7%,-3%,6%
TDP1 block,3%,0%,1%,12%,3%,·

(31) COc1ccccc1NC(=O)C1=C(C)Nc2nc(-c3ccco3)nn2C1c1cccc(C)c1 (stereo unspecified)
(32) CCOc1cc(N2CCOCC2)c(OCC)cc1NC(=O)c1ccc2ccccc2n1
(33) Cc1ccc(S(=O)(=O)Nc2nc(C)c(C(=O)NNS(=O)(=O)c3cc(C)ccc3C)s2)cc1
(34) NC1=NCC2c3ccccc3Cc3ccccc3N12 (stereo unspecified)
(35) CN1CCN2c3ncccc3Cc3ccccc3[C@@H]2C1
(36) Cc1ccc(C[n+]2ccccc2)cc1
entry no.,31,32,33,34,35,36
uPA surface inh,·,5%,0%,·,-5%,-25%
DT40 TDP1 CPT,18µM*,?,14%,?,0%,8.2µM*
TDP1 cell noCPT,?,?,1%,24µM*,-3%,9.2µM*
miR-21 reporter,17%,-19%,-2%,·,0%,·
TDP1 block,·,8%,2%,11%,·,0%

A stretch from the list above:
(30) COc1ccccc1NC(=O)C1=C(C)Nc2nc(-c3ccco3)nn2C1c1ccccc1F (stereo unspecified)
(31) COc1ccccc1NC(=O)C1=C(C)Nc2nc(-c3ccco3)nn2C1c1cccc(C)c1 (stereo unspecified)
(32) CCOc1cc(N2CCOCC2)c(OCC)cc1NC(=O)c1ccc2ccccc2n1
(33) Cc1ccc(S(=O)(=O)Nc2nc(C)c(C(=O)NNS(=O)(=O)c3cc(C)ccc3C)s2)cc1
entry no.,30,31,32,33
uPA surface inh,·,·,5%,0%
DT40 TDP1 CPT,16µM*,18µM*,?,14%
TDP1 cell noCPT,?,?,?,1%
miR-21 reporter,6%,17%,-19%,-2%
TDP1 block,·,·,8%,2%

Next structures follow:
(37) C/C(=N\NC(=O)Cn1c(C)nc2ccccc21)c1cccs1
(38) CC(/C=N/NC(=O)CSc1nc(C)cc(C)n1)=C\c1ccccc1
(39) CC(/C=N\NC(=O)Cn1c(C)nc2ccccc21)=C\c1ccccc1
(40) Cc1cc(C)nc(NNC(=O)NC2CCCCC2)n1
(41) CCCCc1cc2ccccc2c(OCCN(C)C)n1
(42) CN(C)CCOc1ccc2ccccc2c1
entry no.,37,38,39,40,41,42
uPA surface inh,-2%,0%,0%,2%,7%,3%
DT40 TDP1 CPT,15µM*,?,8.2µM*,?,9µM*!,-10%
TDP1 cell noCPT,21µM*,?,8.2µM*,-8%,?,-17%
miR-21 reporter,3%,-2%,9%,0%,·,-6%
TDP1 block,0%,3%,-10%,1%,4%,-8%

(43) COc1cc(C(=S)N2CCCCC2)ccc1OCC(=O)Nc1ccccc1Cl
(44) O=C(COc1ccc(C(=S)N2CCOCC2)cc1Cl)Nc1ccccc1Cl
(45) CCOc1cc(C(=S)N2CCCC2)ccc1OC
(46) CCOc1cc(C(=S)N2CCCC2)ccc1OCC(=O)Nc1c(C)cc(C)cc1C
(47) O=C(CCN1C(=O)c2ccccc2C1=O)Nc1cc(F)ccc1F
(48) CCN(Cc1ccncc1)C(=O)c1cc(COc2ccc(F)cc2Cl)on1
(49) CCN(Cc1ccncc1)C(=O)c1cc(COc2c(F)cccc2F)on1
(50) CN(Cc1ccccn1)C(=O)c1cc(COc2ccc(F)cc2Cl)on1
entry no.,43,44,45,46,47,48,49,50
uPA surface inh,1%,-1%,1%,2%,1%,7%,5%,·
DT40 TDP1 CPT,?,-22%,13%,18µM*,3%,16µM*,?,?
TDP1 cell noCPT,23µM*,-19%,8%,16µM*,-3%,?,-30%,23µM*
miR-21 reporter,1%,-4%,-8%,-2%,-2%,-8%,-6%,·
TDP1 block,5%,0%,·,-5%,5%,3%,0%,·
